Measured values: PubChem BioAssay (Tox21)
The list shows a part of the results, in another mix than the full data. Inconclusive results are not listed. Calls of active or inactive are those of the source. Calls come from the whole dose curve; as a rule, active = well fitted curve in the direction sought with a large enough effect in the repeat runs; inconclusive = weak or mixed curves; inactive = no such curve, though single readings can be large; an effect the other way counts as inactive or inconclusive.

Tests used:
[1] = A CellTox Green Cytotoxicity Assay to monitor cytotoxicity in HepG2 cells - 24 hour (AID 1224878); details: CellTox Green fluorescence; at 76.8 µM (top of the series); note: nearly all actives have a fitted effect of over 45% in size
Procedure, shortened: (§1)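 First, HepG2 cells (600/well) mixed with reagent were plated; second, after 5 h at 37 C they received compounds via pintool; third, fluorescence was measured at 0 h through 40 h at 8 h intervals.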

[2] = A CellTox Green Cytotoxicity Assay to monitor cytotoxicity in HepG2 cells - 40 hour (AID 1224879); details: CellTox Green fluorescence; at 76.8 µM (top of the series); note: nearly all actives have a fitted effect of over 40% in size
Procedure, shortened: as §1

[3] = qHTS RealTime-Glo MT Cell Viability Assay in HEK293 cells - 0 hour (AID 1224880); details: RealTime-Glo luminescence; note: top concentration of the series differs between compounds; nearly all actives have a fitted effect of over 45% in size
Source text: U.S. Tox21 Program National Center for Advancing Translational Sciences [NCATS] NIH Chemical Genomics Center [NCGC] U.S. Environmental Protection Agency [EPA] National Institutes of Environmental Health Sciences [NIEHS] National Toxicology Program [NTP] U.S. Food and Drug Administration [FDA] Tox21 Assay Overview: Measure of cell viability is critical in the cell-base assay. Analysis of cell viability is necessary for the characterization of cell responses to cytotoxic drugs and environmental stress. A RealTime-Glo MT Cell Viability Assay to monitor cell viability in real time of continues cell culture during 40 hours of compound treatment was used to screen Tox21 10K library compounds in Hek293 cells. The RealTime-Glo MT Cell Viability Assay is a nonlytic, homogeneous, bioluminescent method to measure cell viability in real time using a simple, plate-based method. The assay involves adding NanoLuc luciferase and a cell-permeant prosubstrate to cells in culture. Viable cells reduce the proprietary prosubstrate to generate a substrate for NanoLuc luciferase. This substrate diffuses from cells into the surrounding culture medium, where it is rapidly used by the NanoLuc Enzyme to produce a luminescent signal. The signal correlates with the number of viable cells, making the assay well suited for cytotoxicity studies.
(§2) Tox21 Assay Protocol Summary: The mixture of Hek293 cell suspension and reagents were dispensed at 600cells/6 ul/well in 1536-well tissue culture treated black solid bottom plates using a Multidrop dispenser. After the assay plates were incubated at a 37 C/5% CO2 incubator for 5 hours, 23 nL of compounds dissolved in DMSO, positive and negative controls was transferred to the assay plate by a pintool work station. The plates were incubated at 37 C for 40 hours. The luminescence intensity were measured at 0h, 8h, 16h, 24h, 32h and 40h time points using ViewLux plate reader during compound treatment.

[4] = A CellTox Green Cytotoxicity Assay to monitor cytotoxicity in HEK293 cells - 32 hour (AID 1224881); details: CellTox Green fluorescence; at 76.8 µM (top of the series); note: nearly all actives have a fitted effect of over 40% in size
Procedure, shortened: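 Dead-cell fluorescence measured kinetically: asymmetric cyanine dye, HEK293, 600 cells/well, 5 h settle, 23 nL cpd/DMSO, 37 C, reads 0–40 h every 8 h.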

[5] = A CellTox Green Cytotoxicity Assay to monitor cytotoxicity in HepG2 cells - 0 hour (AID 1224882); details: CellTox Green fluorescence; note: nearly all actives have a fitted effect of over 35% in size
Procedure, shortened: as §1

[6] = A CellTox Green Cytotoxicity Assay to monitor cytotoxicity in HepG2 cells - 32 hour (AID 1224883); details: CellTox Green fluorescence; at 76.8 µM (top of the series); note: nearly all actives have a fitted effect of over 50% in size
Source text: (§3) National Center for Advancing Translational Sciences [NCATS]
(§4) NIH Chemical Genomics Center [NCGC]
(§5) U.S. Environmental Protection Agency [EPA]
(§6) National Institutes of Environmental Health Sciences [NIEHS]
(§7) National Toxicology Program [NTP]
(§8) Cell-based models are critical for drug discovery. Determining the natural cytotoxic effects resulting from test compounds is an essential research activity. A CellTox Green Cytotoxicity Assay to monitor cytotoxicity in real time of continues cell culture during 40 hours of the compound treatment was used to screen Tox21 10K library compounds in HepG2 cells. CellTox Green Cytotoxicity Assay is a nonlytic, homogeneous, biofluorescent method to measure cytotoxicity in cell culture after experimental manipulation. The assay system uses a proprietary asymmetric cyanine dye that is excluded from viable cells but preferentially stains the dead cell's DNA. […] Viable cells produce no appreciable increases in fluorescence. Therefore, the fluorescence signal produced by the binding interaction with dead cell DNA is proportional to cytotoxicity.
The mixture of HepG2 cell suspension and reagents were dispensed at 600cells/6 ul/well in 1536-well tissue culture treated black solid bottom plates using a Multidrop dispenser. […] The fluorescence intensity were measured at 0h, 8h, 16h, 24h, 32h and 40h time points using ViewLux plate reader during compound treatment.

[7] = A CellTox Green Cytotoxicity Assay to monitor cytotoxicity in HEK293 cells - 8 hour (AID 1224884); details: CellTox Green fluorescence; note: nearly all actives have a fitted effect of over 35% in size
Source text: as §3, §4, §5, §6, §7
as §8, with “Hek293” for “HepG2”
as §2, with “The” for “Tox21 Assay Protocol Summary: The”, “fluorescence” for “luminescence”

[8] = qHTS RealTime-Glo MT Cell Viability Assay in HepG2 cells - 16 hour (AID 1224885); details: RealTime-Glo luminescence; note: nearly all actives have a fitted effect of over 50% in size
Procedure, shortened: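 Viability was tracked continuously by NanoLuc luminescence from prosubstrate reduced by living HepG2 cells, at successive time points over 40 h of compound exposure. Cells with reagent were preincubated 5 h at 37 °C before compound addition.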

[9] = qHTS RealTime-Glo MT Cell Viability Assay in HEK293 cells - 24 hour (AID 1224886); details: RealTime-Glo luminescence; series mostly up to 76.8 µM; note: nearly all actives have a fitted effect of over 50% in size; note: potency is the fitted concentration of half-maximal effect; for activity change, negative = cytotoxicity: top concentration of the series differs between compounds
Procedure, shortened: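 Viability tracked continuously by luminescence as live cells reduce a prosubstrate for NanoLuc; HEK293 cells preincubated 5 h, compound-treated at 37 C, and read at 0, 8, 16, 24, 32 and 40 h.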

[10] = qHTS RealTime-Glo MT Cell Viability Assay in HEK293 cells - 8 hour (AID 1224887); details: RealTime-Glo luminescence; note: top concentration of the series differs between compounds; nearly all actives have a fitted effect of over 50% in size
Procedure, shortened: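 600 HEK293 cells per well, dispensed already mixed with RealTime-Glo MT reagents. Compound dosing came 5 h later. The same wells were read for luminescence at 0, 8, 16, 24, 32 and 40 h of exposure at 37 C.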
% is set by controls: 0 for no effect and ±100 for the full control effect.

CCC(=O)N(c1ccccc1)C1(COC)CCN(CCn2nnn(CC)c2=O)CC1
inactive: cytotoxicity [1] -5.16% | cytotoxicity increase [2] -2.08% | activity change, negative = cytotoxicity ([3]; at 76.8 µM (top of the series)) -1.67% | cytotoxicity increase [4] -7.08% | cytotoxicity ([5]; at 76.8 µM (top of the series)) 0.405% | cytotoxicity increase [6] -4.93% | cytotoxicity increase ([7]; at 76.8 µM (top of the series)) -2.04% | activity change, negative = cytotoxic ([8]; at 76.8 µM (top of the series)) 3.25% | Potency [9] | activity change, negative = cytotoxicity ([10]; at 76.8 µM (top of the series)) -10.1%

O=[N+]([O-])C(Cl)(Cl)Cl
inactive: cytotoxicity [1] -19.8% | activity change, negative = cytotoxicity ([3]; at 76.8 µM (top of the series)) -0.123% | cytotoxicity increase [4] 15.3% | cytotoxicity ([5]; at 76.8 µM (top of the series)) -7.63% | cytotoxicity increase ([7]; at 76.8 µM (top of the series)) 6.27% | activity change, negative = cytotoxic ([8]; at 76.8 µM (top of the series)) 2.24% | Potency [9] | activity change, negative = cytotoxicity ([10]; at 76.8 µM (top of the series)) 2.19%

CCC(=O)N(c1ccccc1)C1(COC)CCN(CCc2cccs2)CC1
inactive: cytotoxicity [1] 5.86% | cytotoxicity increase [2] 24.6% | activity change, negative = cytotoxicity ([3]; at 76.8 µM (top of the series)) -14.5% | cytotoxicity increase [4] 13% | cytotoxicity ([5]; at 76.8 µM (top of the series)) -0.0236% | cytotoxicity increase [6] 17.6% | cytotoxicity increase ([7]; at 76.8 µM (top of the series)) 1.76% | activity change, negative = cytotoxic ([8]; at 76.8 µM (top of the series)) -4.1%
active: Potency [9] 48.9 µM

CN(CCCl)CCCl
inactive: activity change, negative = cytotoxicity ([3]; at 35.3 µM (top of the series)) 1.65% | activity change, negative = cytotoxicity ([3]; at 76.8 µM (top of the series)) -1.34% | cytotoxicity ([5]; at 35.3 µM (top of the series)) -8.82% | cytotoxicity ([5]; at 76.8 µM (top of the series)) -0.325% | cytotoxicity increase ([7]; at 35.3 µM (top of the series)) 0.654% | cytotoxicity increase ([7]; at 76.8 µM (top of the series)) -10.2% | activity change, negative = cytotoxic ([8]; at 35.3 µM (top of the series)) -19% | activity change, negative = cytotoxic ([8]; at 76.8 µM (top of the series)) -22.9% | activity change, negative = cytotoxicity ([10]; at 35.3 µM (top of the series)) 0.142% | activity change, negative = cytotoxicity ([10]; at 76.8 µM (top of the series)) -15%
